Results reported in PubChem BioAssay (Tox21).
This is a selection; strong and weak results do not stand in their true shares. Inconclusive results are not listed. Where a call stands in place of a potency, no number is given. Active and inactive are the calls of the source. Unless noted, the call rests on the fitted dose curve.

Chains of the proteins cited; added tags and fusions are not shown.
UniProt P22303, whole entry: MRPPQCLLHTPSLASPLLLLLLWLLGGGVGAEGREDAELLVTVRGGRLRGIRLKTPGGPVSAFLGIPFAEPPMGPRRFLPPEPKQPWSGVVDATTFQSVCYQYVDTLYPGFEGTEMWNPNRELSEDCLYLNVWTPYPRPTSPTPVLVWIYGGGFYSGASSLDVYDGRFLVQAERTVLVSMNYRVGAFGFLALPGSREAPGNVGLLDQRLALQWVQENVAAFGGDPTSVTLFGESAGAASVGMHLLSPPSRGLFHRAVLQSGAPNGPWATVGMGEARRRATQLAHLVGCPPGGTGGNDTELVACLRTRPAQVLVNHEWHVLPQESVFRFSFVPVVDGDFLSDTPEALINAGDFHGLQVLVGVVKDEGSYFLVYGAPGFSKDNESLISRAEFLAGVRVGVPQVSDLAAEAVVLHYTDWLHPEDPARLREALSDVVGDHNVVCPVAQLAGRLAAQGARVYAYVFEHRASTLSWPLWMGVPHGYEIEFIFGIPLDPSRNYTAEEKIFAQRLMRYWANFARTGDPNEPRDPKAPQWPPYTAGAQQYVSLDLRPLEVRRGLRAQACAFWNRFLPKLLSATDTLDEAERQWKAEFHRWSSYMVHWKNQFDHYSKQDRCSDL
UniProt O75469, whole entry: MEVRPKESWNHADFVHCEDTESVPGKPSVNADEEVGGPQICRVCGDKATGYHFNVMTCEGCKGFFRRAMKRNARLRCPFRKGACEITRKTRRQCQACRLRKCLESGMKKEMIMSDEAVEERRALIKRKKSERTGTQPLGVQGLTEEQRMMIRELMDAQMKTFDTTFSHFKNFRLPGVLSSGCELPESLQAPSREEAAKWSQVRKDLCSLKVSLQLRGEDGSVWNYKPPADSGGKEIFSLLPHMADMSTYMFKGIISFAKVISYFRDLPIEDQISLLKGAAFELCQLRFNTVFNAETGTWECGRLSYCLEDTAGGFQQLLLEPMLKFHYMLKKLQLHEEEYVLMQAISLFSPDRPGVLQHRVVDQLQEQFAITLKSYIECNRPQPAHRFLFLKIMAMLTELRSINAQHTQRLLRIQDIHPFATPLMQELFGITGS
UniProt P10635, whole entry: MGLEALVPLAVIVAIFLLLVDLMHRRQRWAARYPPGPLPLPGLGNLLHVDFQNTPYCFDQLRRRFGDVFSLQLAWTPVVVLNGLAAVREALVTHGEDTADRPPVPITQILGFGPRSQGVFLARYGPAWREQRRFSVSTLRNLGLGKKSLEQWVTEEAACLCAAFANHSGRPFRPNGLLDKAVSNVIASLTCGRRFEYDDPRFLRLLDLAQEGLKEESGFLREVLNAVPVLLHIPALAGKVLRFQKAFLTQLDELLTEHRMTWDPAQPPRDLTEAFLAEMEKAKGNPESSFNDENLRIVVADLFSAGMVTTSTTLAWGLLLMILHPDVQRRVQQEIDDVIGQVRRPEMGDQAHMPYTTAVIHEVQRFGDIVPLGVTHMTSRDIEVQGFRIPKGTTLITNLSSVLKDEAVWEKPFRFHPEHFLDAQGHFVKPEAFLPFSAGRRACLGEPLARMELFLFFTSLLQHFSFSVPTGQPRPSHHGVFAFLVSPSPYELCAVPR
UniProt P33261, whole entry: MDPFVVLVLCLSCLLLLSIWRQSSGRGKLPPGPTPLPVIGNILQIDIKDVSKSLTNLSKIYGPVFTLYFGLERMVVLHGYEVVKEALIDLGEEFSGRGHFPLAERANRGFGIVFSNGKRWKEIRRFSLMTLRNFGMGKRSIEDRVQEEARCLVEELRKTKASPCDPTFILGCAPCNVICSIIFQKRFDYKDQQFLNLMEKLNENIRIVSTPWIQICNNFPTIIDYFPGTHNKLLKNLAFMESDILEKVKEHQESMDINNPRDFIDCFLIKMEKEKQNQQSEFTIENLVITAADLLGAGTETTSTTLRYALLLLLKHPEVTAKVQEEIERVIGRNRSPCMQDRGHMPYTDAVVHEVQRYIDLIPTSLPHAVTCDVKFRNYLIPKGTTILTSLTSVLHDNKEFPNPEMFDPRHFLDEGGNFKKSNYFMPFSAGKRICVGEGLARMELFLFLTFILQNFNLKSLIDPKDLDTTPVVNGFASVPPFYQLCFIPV
UniProt P11712, whole entry: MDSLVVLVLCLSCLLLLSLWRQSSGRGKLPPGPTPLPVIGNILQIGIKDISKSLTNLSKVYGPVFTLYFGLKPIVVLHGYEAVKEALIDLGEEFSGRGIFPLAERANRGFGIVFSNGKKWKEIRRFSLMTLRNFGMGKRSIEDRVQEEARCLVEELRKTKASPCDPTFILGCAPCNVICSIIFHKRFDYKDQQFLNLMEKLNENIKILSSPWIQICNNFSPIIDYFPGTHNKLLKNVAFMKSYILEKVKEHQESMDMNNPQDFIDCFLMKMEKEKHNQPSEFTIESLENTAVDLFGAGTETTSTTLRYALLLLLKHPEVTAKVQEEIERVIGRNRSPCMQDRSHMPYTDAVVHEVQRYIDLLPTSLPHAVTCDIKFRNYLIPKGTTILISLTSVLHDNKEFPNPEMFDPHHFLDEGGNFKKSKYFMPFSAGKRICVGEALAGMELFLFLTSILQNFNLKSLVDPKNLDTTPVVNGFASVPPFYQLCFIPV
UniProt P05177, whole entry: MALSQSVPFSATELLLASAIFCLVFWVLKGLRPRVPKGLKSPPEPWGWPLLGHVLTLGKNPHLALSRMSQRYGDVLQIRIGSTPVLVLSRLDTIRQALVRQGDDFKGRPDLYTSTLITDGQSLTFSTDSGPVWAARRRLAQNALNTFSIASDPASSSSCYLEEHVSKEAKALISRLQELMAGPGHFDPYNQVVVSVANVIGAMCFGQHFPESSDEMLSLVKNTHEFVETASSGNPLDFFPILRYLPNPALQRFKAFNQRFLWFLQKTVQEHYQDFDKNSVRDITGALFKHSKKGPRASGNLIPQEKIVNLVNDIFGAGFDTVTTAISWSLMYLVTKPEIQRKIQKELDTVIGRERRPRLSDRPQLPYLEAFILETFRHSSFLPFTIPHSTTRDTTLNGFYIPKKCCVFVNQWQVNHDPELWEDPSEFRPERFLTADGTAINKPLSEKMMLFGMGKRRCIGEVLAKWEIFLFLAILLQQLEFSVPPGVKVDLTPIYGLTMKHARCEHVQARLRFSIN
UniProt Q12809, whole entry: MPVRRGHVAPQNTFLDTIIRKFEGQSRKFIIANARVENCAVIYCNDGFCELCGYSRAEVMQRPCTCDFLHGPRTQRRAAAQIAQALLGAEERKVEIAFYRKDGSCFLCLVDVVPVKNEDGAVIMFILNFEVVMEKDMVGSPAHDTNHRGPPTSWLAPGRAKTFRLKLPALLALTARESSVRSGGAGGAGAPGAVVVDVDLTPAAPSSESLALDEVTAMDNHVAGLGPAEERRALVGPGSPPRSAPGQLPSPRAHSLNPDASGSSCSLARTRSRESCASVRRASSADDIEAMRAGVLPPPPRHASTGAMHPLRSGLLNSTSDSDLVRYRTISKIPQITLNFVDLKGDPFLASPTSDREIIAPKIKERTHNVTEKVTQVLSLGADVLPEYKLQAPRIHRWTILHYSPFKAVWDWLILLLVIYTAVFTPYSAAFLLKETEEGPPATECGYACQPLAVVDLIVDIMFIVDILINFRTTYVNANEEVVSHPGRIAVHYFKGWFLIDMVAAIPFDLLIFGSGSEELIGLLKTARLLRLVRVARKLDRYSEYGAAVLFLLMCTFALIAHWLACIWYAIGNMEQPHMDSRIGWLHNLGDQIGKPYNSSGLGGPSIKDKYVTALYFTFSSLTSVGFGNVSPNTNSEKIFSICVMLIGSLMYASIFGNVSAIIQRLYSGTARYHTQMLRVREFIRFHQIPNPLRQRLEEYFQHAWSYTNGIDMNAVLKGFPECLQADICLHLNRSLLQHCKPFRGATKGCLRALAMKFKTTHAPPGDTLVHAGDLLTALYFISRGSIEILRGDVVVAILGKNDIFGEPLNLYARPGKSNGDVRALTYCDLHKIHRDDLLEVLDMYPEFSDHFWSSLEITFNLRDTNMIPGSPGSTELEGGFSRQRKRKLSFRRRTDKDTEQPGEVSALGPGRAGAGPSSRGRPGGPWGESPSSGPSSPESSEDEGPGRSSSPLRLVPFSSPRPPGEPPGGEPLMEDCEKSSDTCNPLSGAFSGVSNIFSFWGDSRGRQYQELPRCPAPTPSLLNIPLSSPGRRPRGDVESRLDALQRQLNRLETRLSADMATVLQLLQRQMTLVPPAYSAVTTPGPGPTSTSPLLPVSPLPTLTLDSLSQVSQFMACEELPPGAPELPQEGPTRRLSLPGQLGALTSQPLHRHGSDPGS
UniProt P08684, whole entry: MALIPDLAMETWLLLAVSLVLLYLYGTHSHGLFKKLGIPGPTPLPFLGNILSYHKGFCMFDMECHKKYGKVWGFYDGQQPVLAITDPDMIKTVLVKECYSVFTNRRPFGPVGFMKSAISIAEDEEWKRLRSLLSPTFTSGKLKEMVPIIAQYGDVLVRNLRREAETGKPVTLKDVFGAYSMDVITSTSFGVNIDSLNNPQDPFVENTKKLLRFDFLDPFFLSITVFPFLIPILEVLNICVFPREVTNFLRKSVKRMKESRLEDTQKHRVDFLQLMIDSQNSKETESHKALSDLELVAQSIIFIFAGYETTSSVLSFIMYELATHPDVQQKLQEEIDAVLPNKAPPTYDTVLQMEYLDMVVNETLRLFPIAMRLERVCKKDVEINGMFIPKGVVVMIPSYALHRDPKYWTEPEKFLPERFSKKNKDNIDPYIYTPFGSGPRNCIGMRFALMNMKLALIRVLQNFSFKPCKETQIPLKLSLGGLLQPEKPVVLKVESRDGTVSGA

Key:
[1] = target: Acetylcholinesterase (Homo sapiens) (UniProt P22303); experiment: Acetylcholinesterase (AChE) small molecule antagonists: fluorescence cell-based qHTS assay (AID 1347398); settings: Potency: AChE activity; further: nearly all actives have a fitted effect of over 50% in size
How it was run: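 Using neuroblastoma SH-SY5Y cells as the enzyme source, test chemicals are preincubated 30 min at 37 C; AChE-driven acetylthiocholine cleavage is then quantified by thiocholine-dependent Thiolite Green fluorescence after 40 min at room temperature.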

[2] = Human pregnane X receptor (PXR) small molecule agonists, qHTS cell viability counter screen (AID 1346977; active means well fitted curve in the direction sought with a large enough effect in the repeat runs; an effect the other way counts as inactive or inconclusive; further: nearly all actives have a fitted effect of over 50% in size); settings: PXR-Luc HepG2 viability, CellTiter-Fluor, 24 h; at 92.4 µM (top of the series) unless noted
How it was run: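 Cytotoxicity counter screen run in the same wells as the PXR luciferase assay, using PXR-Luc HepG2 cells in charcoal-stripped serum medium. Viability: CellTiter-Fluor fluorescence after 24hr compound treatment.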

[3] = Caspase-3/7 induction in HepG2 cells by small molecules, qHTS assay (AID 1346978; active means well fitted curve in the direction sought with a large enough effect in the repeat runs; an effect the other way counts as inactive or inconclusive; further: nearly all actives have a fitted effect of over 15% in size); settings: HepG2 caspase-3/7 activation, Caspase-Glo luminescence, 17 h; at 92.4 µM (top of the series) unless noted
How it was run: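 Wild-type HepG2 cells (2,000/well) were settled 5 h at 37 C, 5% CO2, then exposed to compounds in DMSO for 17 h. Caspase-3/7 activity was read by luminescence 30 min after adding Caspase-Glo 3/7 reagent at room temperature.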

[4] = Caspase-3/7 induction in CHO-K1 cells by small molecules, qHTS assay (AID 1346980; active means well fitted curve in the direction sought with a large enough effect in the repeat runs; an effect the other way counts as inactive or inconclusive; further: nearly all actives have a fitted effect of over 15% in size); settings: CHO-K1 caspase-3/7 induction, Caspase-Glo luminescence, 17 h; at 92.4 µM (top of the series) unless noted
How it was run: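 Wild-type cells were seeded at 1,500 per well and settled 5 hr at 37 C, 5% CO2, then exposed to DMSO-dissolved compounds for 17 hr. Caspase-Glo 3/7 reagent was added, and luminescence was read after 30min at room temperature.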

[5] = Caspase-3/7 induction in HepG2 cells by small molecules, qHTS cell viability counter screen (AID 1346981; active means well fitted curve in the direction sought with a large enough effect in the repeat runs; an effect the other way counts as inactive or inconclusive; further: nearly all actives have a fitted effect of over 30% in size); settings: CellTiter-Fluor fluorescence, 17 h; at 92.4 µM (top of the series) unless noted
How it was run: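 In this quantitative HTS counter screen, compounds delivered in DMSO were left on unmodified HepG2 cells for 16 hr at 37 C. Viability was then determined fluorometrically with CellTiter-Fluor, in parallel with caspase-3/7 induction in the same wells.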

[6] = target: Nuclear receptor subfamily 1 group I member 2 (Homo sapiens) (UniProt O75469); experiment: Human pregnane X receptor (PXR) small molecule agonists, qHTS assay (AID 1346982; active means well fitted curve in the direction sought with a large enough effect in the repeat runs; an effect the other way counts as inactive or inconclusive; further: nearly all actives have a fitted effect of over 35% in size); settings: PXR-Luc HepG2, CYP3A4 luciferase reporter, 24 h; at 92.4 µM (top of the series) unless noted
How it was run: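 Reporter HepG2 cells expressing PXR-Luc are cultured in charcoal-stripped FBS (5%), treated with compounds for 24 hr at 37 C, and assayed by ONE-Glo luminescence after 30 min at room temperature.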

[7] = target: Cytochrome P450 2D6 (Homo sapiens) (UniProt P10635); experiment: Cytochrome P450 Family 2 Subfamily D Member 6 (CYP2D6) small molecule antagonists: luciferase reporter qHTS assay (AID 1671196; active means well fitted curve in the direction sought with a large enough effect in the repeat runs; an effect the other way counts as inactive or inconclusive; further: nearly all actives have a fitted effect of over 50% in size)
How it was run: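 Test chemicals meet CYP2D6 plus proluciferin substrate (10 min, RT); NADPH regenerating solution then drives turnover for 1 h. Detection reagent halts the reaction; luminescence measured after 20 min.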

[8] = target: Cytochrome P450 2C19 (Homo sapiens) (UniProt P33261); experiment: Cytochrome P450 Family 2 Subfamily C Member 19 (CYP2C19) small molecule antagonists: luciferase reporter qHTS assay (AID 1671197; active means well fitted curve in the direction sought with a large enough effect in the repeat runs; an effect the other way counts as inactive or inconclusive; further: nearly all actives have a fitted effect of over 65% in size)
How it was run: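 Light output is proportional to CYP2C19 activity: proluciferin substrate is converted to luciferin, then detected by a luciferin detection reagent that also stops the 1 h, 37C NADPH-driven reaction. Ketoconazole serves as positive control.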

[9] = target: Cytochrome P450 2C9 (Homo sapiens) (UniProt P11712); experiment: Cytochrome P450 Family 2 Subfamily C Member 9 (CYP2C9) small molecule antagonists: luciferase reporter qHTS assay (AID 1671198; active means well fitted curve in the direction sought with a large enough effect in the repeat runs; an effect the other way counts as inactive or inconclusive; further: nearly all actives have a fitted effect of over 50% in size); settings: P450-Glo CYP2C9 enzyme assay, luciferin luminescence; at 115 µM (top of the series) unless noted
How it was run: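 CYP2C9 activity was measured with a P450-Glo proluciferin substrate. Enzyme–substrate mix was held with compound for 10 min at room temperature, then NADPH regeneration solution was added for 1 h at 37C. Luciferin product was read as luminescence.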

[10] = target: Cytochrome P450 1A2 (Homo sapiens) (UniProt P05177); experiment: Cytochrome P450 Family 1 Subfamily A Member 2 (CYP1A2) small molecule antagonists: luciferase reporter qHTS assay (AID 1671199; active means well fitted curve in the direction sought with a large enough effect in the repeat runs; an effect the other way counts as inactive or inconclusive; further: nearly all actives have a fitted effect of over 50% in size); settings: P450-Glo CYP1A2 enzyme, luciferin luminescence, 1 h; at 115 µM (top of the series) unless noted
[11] = target: Voltage-gated inwardly rectifying potassium channel KCNH2 (Homo sapiens) (UniProt Q12809); experiment: Human Ether-a-go-go-Related Gene (hERG) channel small molecule antagonists: fluorescence cell-based qHTS assay (AID 1671200; active means well fitted curve in the direction sought with a large enough effect in the repeat runs; an effect the other way counts as inactive or inconclusive); settings: hERG-U2OS cells, FluxOR thallium flux fluorescence; at 76.8 µM (top of the series) unless noted
How it was run: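 Fluorescence at 540 nm emission (480 nm excitation) was recorded kinetically for 2 min at 1-second intervals once the thallium-containing stimulus reached cells previously loaded with FluxOR II dye.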

[12] = target: Cytochrome P450 3A4 (Homo sapiens) (UniProt P08684); experiment: Cytochrome P450 Family 3 Subfamily A Member 4 (CYP3A4) small molecule antagonists: luciferase reporter qHTS assay (AID 1671201; active means well fitted curve in the direction sought with a large enough effect in the repeat runs; an effect the other way counts as inactive or inconclusive; further: nearly all actives have a fitted effect of over 50% in size); settings: P450-Glo CYP3A4 enzyme, luciferin luminescence, 1 h; at 115 µM (top of the series) unless noted
How it was run: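 qHTS, 1536-well. CYP3A4 + proluciferin substrate, cpd 10 min RT → NADPH regen 1 h RT → detection reagent 20 min → luminescence (RLU). Ketoconazole positive control.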

For `CN(C)CCCl`, the Potency [1] was “inactive”.
With `CCOP(=O)(CC)OCC` the Potency [1] was “inactive”.
For `Cc1cccc([N+](=O)[O-])c1[N+](=O)[O-]`, the Potency [1] was “inactive”.
In the case of `N=C(N)N[N+](=O)[O-]`, the Potency [1] is reported as “inactive”.
In the case of `O=[N+]([O-])[O-].[NH4+]`, the Potency [1] is reported as “inactive”.
In the case of `Cc1ccc([N+](=O)[O-])c([N+](=O)[O-])c1`, the Potency [1] is reported as “inactive”.
With `CCN(CC)CCCl` the Potency [1] was “inactive”.
For `N#CBr`, the Potency [1] was “inactive”.
For `[NH4+].[O-][Cl+3]([O-])([O-])[O-]`, the Potency [1] was “inactive”.
In the case of `CP(=O)(O)OCCC[Si](O)(O)O`, the Potency [1] is reported as “inactive”.
In the case of `Nc1cc([N+](=O)[O-])cc([N+](=O)[O-])c1O`, the Potency [1] is reported as “inactive”.
In the case of `CC(C)OP(OC(C)C)OC(C)C`, the activity change, negative = cytotoxicity [2] is reported as inactive: -4.68%, the caspase activation [3] is reported as inactive: 0.234% and the caspase-3/7 activation [4] is reported as inactive: 2.8%. The activity change, negative = cytotoxicity [5] was inactive: -2.3%, the activation [6] was inactive: 9.31% and the Potency [1] was “inactive”. For the same molecule, the Potency [7] was “inactive”, the Potency [8] was “inactive” and the activity change, negative = inhibition [9] was inactive: 9.07%. The activity change, negative = inhibition [10] was inactive: -6.05%, the activity change, negative = inhibition [11] was inactive: 3.6% and the activity change, negative = inhibition [12] was inactive: 25.6%.
